Results as given in PMC8703108, “Identifying of Anti-Thrombin Active Components From Curcumae Rhizoma by Affinity-Ultrafiltration Coupled With UPLC-Q-Exactive Orbitrap/MS” (Frontiers in Pharmacology, 2021).

Target: T1, thrombin (THR, FIIα) (Homo sapiens, UniProt P00734)
T1 construct: gene F2; human recombinant THR
Assay: chromogenic substrate S-2238 assay; also affinity ultrafiltration-HPLC with active vs denatured enzyme
Format: biochemical

CC1CNc2c(cccc2S(=O)(=O)N[C@@H](CCCNC(=N)N)C(=O)N2CC[C@@H](C)C[C@@H]2C(=O)O)C1 (stereo partly shown) [argatroban]
IC50: 243 nM
